Molecular target: T1, 17-beta-hydroxysteroid dehydrogenase type 1 (Homo sapiens, UniProt P14061)
T1 sequence (P14061 whole entry): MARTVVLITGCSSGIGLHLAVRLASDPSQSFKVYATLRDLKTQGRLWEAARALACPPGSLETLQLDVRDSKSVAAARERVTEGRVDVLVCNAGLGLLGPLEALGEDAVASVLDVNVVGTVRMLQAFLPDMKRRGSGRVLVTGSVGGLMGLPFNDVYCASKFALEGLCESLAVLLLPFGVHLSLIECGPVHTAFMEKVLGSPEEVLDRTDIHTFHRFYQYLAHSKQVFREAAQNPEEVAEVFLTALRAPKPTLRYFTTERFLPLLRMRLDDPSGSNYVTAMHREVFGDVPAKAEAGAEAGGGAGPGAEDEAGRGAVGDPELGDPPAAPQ
Experiment: Inhibition of 17beta-HSD1 in human placental cytosolic fraction using [3H]E1 as substrate assessed as formation of E2 by HPLC analysis

COc1cccc(N(C)C(=O)c2ccc(-c3cccc(OC)c3F)s2)c1
IC50: > 50 µM

From ChEMBL document CHEMBL2321834 (J Med Chem, 2013)
